Legend:
[1] = target: T1, Transcription initiation factor TFIID subunit 1 [1504-1635] (Homo sapiens, UniProt P21675); experiment: TR-FRET Binding Assay
T1 construct: 1504-1635
Method: After a 10 minute incubation at room temperature, biotin-ligand (0.04 uM final) was added. […] After forty minutes of equilibration at room temperature, the plates were read on an Envision instrument and IC50s calculated using a four parameter logistic model (XLFIT).

Chains of the proteins cited; added tags and fusions are not shown. Residues count along the entry.
UniProt P21675, 1525-1656: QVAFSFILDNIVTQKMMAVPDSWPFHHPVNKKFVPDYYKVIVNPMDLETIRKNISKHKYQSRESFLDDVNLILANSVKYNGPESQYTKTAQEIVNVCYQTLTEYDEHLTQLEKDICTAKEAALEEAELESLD
UniProt P21675, 1402-1618: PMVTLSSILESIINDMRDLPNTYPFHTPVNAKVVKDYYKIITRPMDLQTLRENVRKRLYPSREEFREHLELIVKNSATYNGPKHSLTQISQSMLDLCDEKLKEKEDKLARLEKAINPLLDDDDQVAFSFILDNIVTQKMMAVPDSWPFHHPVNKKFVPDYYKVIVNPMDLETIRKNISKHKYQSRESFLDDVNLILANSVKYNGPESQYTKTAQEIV

[2] = target: T2, Transcription initiation factor TFIID subunit 1 [1381-1497] (Homo sapiens, UniProt P21675); experiment: TAF1-BD1 TR-FRET Binding Assay
T2 construct: 1381-1497
Method: Specifically, in a 384 well ProxiPlate, TAF1-BDI (0.08 uM final) in 50 mM HEPES (pH 7.5; final), 50 mM NaCl (final), 1 mM TCEP (final), 0.1 mg/mL BSA (final), and 0.069 mM Brij-35 (final) was added either in the presence of DMSO (final 0.2% DMSO) or compound dilution series in DMSO. After a 10 minute incubation at room temperature, biotin-ligand (0.08 uM final) was added. After 10 minutes incubation at room temperature, a mixture Eu-W1024 Anti-6×His antibody (Perkin Elmer ADO 110) and SureLight Streptavidin-Allophycocyanin (SA-APC, Perkin Elmer CR130-100) were added to final concentrations of 0.2 nM antibody and 0.05 uM SA-APC, respectively. After forty minutes of equilibration at room temperature, the plates were read on an Envision instrument and IC50s calculated using a four parameter logistic model (XLFIT).

IC50 [1]: 19.4 nM
IC50 [2]: 101 nM
SMILES: CCC(C)COC(=O)c1c(C)[nH]c2c(=O)n(C)cc(C#CC(C)(C)O)c12 (configuration not stated) [US10202378, Example 149]
